Data from patent US11786548B2, “Trace element compositions, methods of making and use” (priority 2020, dated 2023).

Experiment: Stability study of injectable trace element composition in parenteral nutrition admixtures (assay test for zinc, copper, selenium, manganese)
Assay type: physicochemical
Conditions: acceptance criteria 90.0-110.0%
Source text: In order to establish stability data for parenteral nutrition admixed with the injectable compositions of trace elements, we conducted a stability study of injectable trace element composition (trace elements injectable composition, USP) in parenteral nutrition admixtures (assay test); a pH study of parenteral nutrition (PN) admixtures upon addition of injectable trace element composition (trace elements injectable composition, USP); a compatibility study of injectable trace element composition (trace elements injectable composition, USP) in parenteral nutrition admixtures; and a reduced inoculation antimicrobial effectiveness study for injectable trace element composition (trace elements injectable composition, USP) in parenteral nutrition admixtures. […]

[1] = Injectable trace element composition in CLINIMIX solution stored at 2° C. to 8° C.
[2] = Injectable trace element composition in KABIVEN solution stored at 2° C. to 8° C.

With manganese sulfate monohydrate the “Assay Day 0” value [1] was 105.0%, the “Assay Day 5” value [1] was 97.2% and the “Assay Day 7” value [1] was 98.9%. For the same substance, the “Assay Day 10” value [1] was 101.6%, the “Assay Day 14” value [1] was 106.8% and the “Assay Day 0” value [2] was 100.7%. For the same substance, the “Assay Day 5” value [2] was 95.0%, the “Assay Day 7” value [2] was 92.1% and the “Assay Day 10” value [2] was 102.5%. For the same substance, the “Assay Day 14” value [2] was 97.9%.
